From patent US5614370A, “Assay to identify human C5a antagonists and agonists” (Merck & Co., Inc., priority 1994, dated 1997)

Biological target: T1, C5a receptor (Homo sapiens, UniProt P21730)
T1 construct: followed by a 20 μL aliquot of neutrophil membrane; endogenous in cells
T1 sequence (P21730 1-350): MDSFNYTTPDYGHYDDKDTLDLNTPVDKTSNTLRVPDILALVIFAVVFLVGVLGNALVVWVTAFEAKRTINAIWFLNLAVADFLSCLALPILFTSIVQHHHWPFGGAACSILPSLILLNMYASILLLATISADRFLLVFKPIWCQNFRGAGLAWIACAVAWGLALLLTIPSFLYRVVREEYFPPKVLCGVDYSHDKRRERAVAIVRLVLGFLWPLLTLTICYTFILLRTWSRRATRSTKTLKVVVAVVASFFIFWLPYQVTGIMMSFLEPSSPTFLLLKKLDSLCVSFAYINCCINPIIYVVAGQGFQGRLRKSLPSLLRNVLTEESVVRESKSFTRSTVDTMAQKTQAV
Test: Competition binding against 125I-labeled intact C5a on human neutrophil (PMN) membranes
Excerpt: The affinity of these peptides is shown, for example, by radiolabeling intact C5a, and using the unlabeled peptide to compete the labeled C5a from C5a receptor binding sites on cellular membranes. Preparations of polymorphonuclear leukocytes (PMN's) are known to express the C5a receptor, (inhibition of the chemotactic response to C5a of this type of cell is one desirable utility for compounds identified by the instant assay). One method for preparing these membranes is described by Rollins, T. E. et al., [J. Biol. Chem. 264:520-526 (1988); see also U.S. Pat. No. 5,177,190, herein incorporated by reference as a method for isolating and purifying C5a receptor]. Briefly, this involves isolating PMN's in large quantity, disrupting these cells and obtaining the membrane fraction by centrifugation. […]
Binding is initiated by an addition of 20 μL of PMN membrane (typically 0.5 μg of protein) to each tube. […] Non-specific background was determined by inclusion of a 100-fold excess of unlabeled C5a.
The percent inhibition is calculated according to the following formula: [formula]
Iodination of C5a was carded out with the use of chloramine T. (Rollins, T.E., and Springer, M.S. (1985) J. Biol. Chem. 260, 7157-7160). […] Concentrations of C5a were determined by amino acid analysis and by RIA (Amersham Corp.). […]

SMILES: CN[C@@H](Cc1ccccc1)C(=O)N[C@@H](CCCCN)C(=O)N1CCC[C@H]1C(=O)N[C@H](CC1CCCCC1)C(=O)N[C@@H](Cc1c[nH]c2ccccc12)C(=O)N[C@H](CCCN=C(N)N)C(=O)O [C089]
- IC50: 70 nM
